Target: ABCC4 (Homo sapiens, UniProt O15439)
Experiment: Inhibition of ATP-dependent [3H]LTC4 transport into plasma membrane vesicles from human platelets
Assay type: biochemical
Set-up: expressed in transfected cells; host or cells: Chinese hamster lung V79 fibroblasts (V79-ABCC4), inside-out membrane vesicles
Details: for ATP-dep. [^3H]LTC4 Transport (% of control): 100 nM [^3H]LTC4, 3 min at 37° C., absence of GSH, human platelet vesicles

Amino acid sequences for entries named in this document (tags omitted). A change or cut given only in a name is not applied to a line headed by its entry.
UniProt O15439: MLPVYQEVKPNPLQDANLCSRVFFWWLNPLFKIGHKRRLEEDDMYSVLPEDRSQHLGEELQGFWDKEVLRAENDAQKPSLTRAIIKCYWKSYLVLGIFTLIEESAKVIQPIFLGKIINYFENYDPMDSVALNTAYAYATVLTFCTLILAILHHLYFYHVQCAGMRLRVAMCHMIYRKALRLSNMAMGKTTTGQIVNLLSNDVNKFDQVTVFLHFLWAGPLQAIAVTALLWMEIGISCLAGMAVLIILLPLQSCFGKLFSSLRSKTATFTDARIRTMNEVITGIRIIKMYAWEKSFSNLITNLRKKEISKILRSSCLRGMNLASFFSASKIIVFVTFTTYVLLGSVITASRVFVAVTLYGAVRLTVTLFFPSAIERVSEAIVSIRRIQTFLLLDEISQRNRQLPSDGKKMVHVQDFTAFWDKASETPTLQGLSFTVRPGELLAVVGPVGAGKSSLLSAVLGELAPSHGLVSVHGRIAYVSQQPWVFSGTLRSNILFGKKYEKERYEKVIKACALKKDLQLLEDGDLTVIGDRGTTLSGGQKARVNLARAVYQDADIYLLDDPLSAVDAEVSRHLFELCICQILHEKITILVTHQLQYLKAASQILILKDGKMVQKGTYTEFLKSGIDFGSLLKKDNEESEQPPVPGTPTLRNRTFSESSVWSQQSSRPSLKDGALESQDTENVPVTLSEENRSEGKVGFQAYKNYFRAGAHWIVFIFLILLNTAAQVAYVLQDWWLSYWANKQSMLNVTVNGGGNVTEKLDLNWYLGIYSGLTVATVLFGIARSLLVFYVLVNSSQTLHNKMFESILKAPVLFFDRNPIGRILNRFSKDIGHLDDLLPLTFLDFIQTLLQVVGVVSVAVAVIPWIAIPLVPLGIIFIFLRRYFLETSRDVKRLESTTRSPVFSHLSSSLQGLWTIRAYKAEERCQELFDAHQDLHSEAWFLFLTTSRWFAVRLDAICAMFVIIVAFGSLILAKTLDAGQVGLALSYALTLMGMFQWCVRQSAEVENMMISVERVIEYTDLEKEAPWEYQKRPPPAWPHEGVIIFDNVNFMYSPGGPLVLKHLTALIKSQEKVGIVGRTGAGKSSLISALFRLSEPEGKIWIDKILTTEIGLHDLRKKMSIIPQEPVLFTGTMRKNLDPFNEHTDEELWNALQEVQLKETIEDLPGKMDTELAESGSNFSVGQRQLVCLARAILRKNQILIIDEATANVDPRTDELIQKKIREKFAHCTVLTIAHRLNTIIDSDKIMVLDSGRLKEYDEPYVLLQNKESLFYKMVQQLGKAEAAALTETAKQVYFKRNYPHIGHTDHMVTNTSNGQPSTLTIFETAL

CC(C)(O)c1ccccc1CC[C@@H](SCC1(CC(=O)O)CC1)c1cccc(/C=C/c2ccc3ccc(Cl)cc3n2)c1 [Montelukast]
inhibition at 20 µM (20 μM, vesicles from human platelets): 43% | ATP-dep. [^3H]LTC4 Transport (% of control) (compound 10 μM): 75 ± 4 % of control | ATP-dep. [^3H]LTC4 Transport (% of control) (compound 20 μM): 57 ± 4 % of control

— US20100113370A1, “METHODS AND COMPOUNDS FOR MODULATING INFLAMMATORY PROCESSES” (priority 2007, published 2010)
